Measured affinities in a library of Ab-14 light chain variants

Values reported by Li et al. 2023, doi:10.1038/s41467-023-39022-2 (FLAb copy).

Antigen: PDVDLGDISGINAS, a 14-residue peptide of the SARS-CoV-2 spike HR2 region.

Each scFv is VH, a 15-residue (Gly4Ser)3 linker, VL, as in the parent Ab-14, and differs from it in the CDRs of the light chain only.
VH: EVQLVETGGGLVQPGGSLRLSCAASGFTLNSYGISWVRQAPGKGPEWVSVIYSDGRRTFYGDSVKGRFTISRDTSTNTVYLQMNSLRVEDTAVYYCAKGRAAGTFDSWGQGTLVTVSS
VL: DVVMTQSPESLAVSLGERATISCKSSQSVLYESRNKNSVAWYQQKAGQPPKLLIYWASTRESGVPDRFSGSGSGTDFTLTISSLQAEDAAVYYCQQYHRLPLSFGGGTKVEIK

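The parent was found by panning a naive human phage display library on the peptide. This is the validation round: designs drawn from the data on random variants, tested in the same kind of assay. Their group label is 14L_En_HC (En: ensemble of fine-tuned language models; HC: hill climbing; a sequence that several methods proposed may carry one label only). In AlphaSeq, yeast of one mating type display the scFv and yeast of the other type display the target. Pairs that bind mate more often; barcode pairs of the diploids are counted by sequencing. Each replicate has its own calibration line, from reference interactions of the BCL2 family. Each pool was mated in six replicate cultures.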

Variants are written as CDR1, CDR2 and CDR3 of the light chain (limits as in the source). Parent: KSSQSVLYESRNKNSVA, WASTRES, QQYHRLPLS. Values are log10 of the apparent Kd in nM; lower means stronger binding. Averages over replicates are reported, and they cover detected replicates only. "ND" marks a missing value. The strain was present, yet no cells mated with the target were sequenced in that replicate, which points to weak or no binding.

CDR-L1	CDR-L2	CDR-L3	log10 Kd (nM) by replicate	mean, log10 nM	empty controls
KVQEMMAFLSSNRNNVA	DNSTRGS	QQYHRLPLS	1.25 0.85 1.18 1.07 0.61 0.97	0.99	0 of 18
QLGMVQDMTSKNKNSVA	EQSTREN	QQYHRLPLS	1.70 2.02 0.93 1.66 1.22 1.93	1.58	0 of 18
NFSQMVQTGMTLRNSVA	HASMRFN	QQYHRLPLI	2.10 1.31 0.98 1.36 1.90 1.84	1.58	0 of 18
IISQSVMGVSRNKNSVA	QTSERNY	QQYDRLPLS	0.51 1.37 0.60 0.98 1.00 0.95	0.90	0 of 18
KITYMWTFESHNRNNIA	EESTRED	QSYHRLPLS	2.21 2.23 1.83 1.73 0.97 1.85	1.80	2 of 18 (3.38)
MFSQGVMVGWLTRNSVA	NSSTRED	QQYHRLPLS	1.08 0.63 0.62 0.61 0.78 1.37	0.85	2 of 18 (3.30)
HISPSFMVESKLRNSVA	QTETRVQ	QQYDRLPLS	0.19 0.43 0.04 0.16 0.21 0.27	0.22	1 of 18 (2.81)
TLSHSTDLESVHRNNIA	DLMTRES	QQYDRLPLS	0.28 0.14 0.23 0.38 0.20 0.18	0.23	1 of 18 (1.91)
HMSQVTMYGYWMKNSVA	QTSTREE	QQYDRLPLS	-0.19 -0.06 0.14 -0.26 -0.23 0.04	-0.09	2 of 18 (1.93)
KIGHGLTTEMYNRNSVA	QTETRVD	QHYHRLPLS	ND ND ND ND 2.77 2.60	2.68	1 of 18 (2.55)
KLYFNVGTMSHNAQSIA	DMERRED	QQYHRLPLS	0.66 0.45 0.20 0.10 0.26 0.31	0.33	0 of 18
MFSQLMEYGSRYKNSVA	QASVREN	QQYHWLPLS	0.43 1.55 0.84 0.22 0.50 0.85	0.73	0 of 18
HISQMVMYGSCMKNNVA	QVSLREE	QQYHRLPLS	1.09 0.92 0.88 1.35 1.55 0.99	1.13	2 of 18 (1.98)
TISTLMRYESSLKNAIA	NAQTREQ	QQYHRLPIS	0.88 0.57 0.59 0.58 0.69 0.80	0.68	2 of 18 (2.48)
KVSQAVNYLSRVMNSVA	DNSTRGS	QQYFRLPLS	0.66 0.87 0.31 0.13 0.18 0.23	0.40	1 of 18 (2.26)
KLYMMTGYESRNADSIA	DNSTRGR	QQYHRLPLS	1.02 2.13 1.80 1.97 1.91 ND	1.77	1 of 18 (1.79)
HLGGLMTWEEKNRNSVA	QQETRAK	QQYHHLPLS	0.63 0.45 0.49 0.45 0.71 0.83	0.60	1 of 18 (2.80)
MISDLTTYGLRNVNSVA	DLSTRGN	QQYDRLPLS	0.93 0.43 0.50 0.64 0.53 0.38	0.57	2 of 18 (3.35)
KISQLVNFEGKHKNSVA	QMSTRES	QQYDRLPLS	0.51 0.33 0.32 0.04 0.08 0.42	0.29	0 of 18
KLSATYRYEMQNKNSIA	EMTTRES	QCYHRLPLS	ND 2.10 2.06 4.09 ND 2.12	2.59	0 of 18
TISQSVLMTGLNRNSVA	QAEQRIE	QQYHRLPLS	0.47 0.76 0.55 0.36 0.61 0.58	0.55	0 of 18
TISDSAQQESHNKNSVA	DLSVRGS	QQYHRLPLS	0.47 0.23 0.16 0.21 -0.01 0.18	0.20	1 of 18 (4.38)
KIAATVLYESGSANSVA	QNSTRES	QQYHRLPLS	1.53 2.10 1.96 1.09 1.42 1.72	1.64	0 of 18
ILSQSVLMGMHTKNSVA	QAQMRFN	QQYHRLPLM	1.68 0.81 0.65 0.94 1.24 1.87	1.20	1 of 18 (1.73)
KISQMYRYEQQNSGSIA	EVSTRLN	QSYHRLPLS	1.24 2.52 1.29 1.28 1.65 1.07	1.51	0 of 18
KIPQATMQESVSKNSVA	ELSTRGS	QQYHRLPLS	0.94 1.05 1.01 1.17 1.21 1.06	1.08	2 of 18 (3.12)
TIGQVMHYESRNVNSVA	QTSTREE	QDYHRLPLS	1.27 1.92 1.28 1.64 1.74 1.41	1.54	2 of 18 (2.58)
MLSDMVKMGSRNTNSVA	DNSTRGS	QQYDRLPLS	0.89 1.35 1.41 1.10 1.03 1.73	1.25	0 of 18
KLSQVTHYESRNKNSIA	EMVTREK	QQYDRLPLS	2.66 2.02 1.67 1.08 0.67 3.06	1.86	1 of 18 (2.28)
HILQNVMYESRNRNSVA	HQSTRED	QQYHSLPLS	1.14 0.81 0.82 0.65 0.82 0.87	0.85	1 of 18 (3.11)
KISQTVLYQGRLANAVA	QMSTREN	QQYDRLPLS	1.00 0.78 0.69 1.00 1.31 1.67	1.08	0 of 18
KLRQSEHIESFYKNNVA	EMTTRES	QSYDRLPLS	1.87 0.98 ND 1.17 0.81 1.05	1.18	0 of 18
KLSIFQQVESINKSNVA	EMVTRES	QQYDRLPLS	ND ND ND 2.50 ND ND	2.50	1 of 18 (2.02)
TIGQVMHYESRDKNSVA	QTSTREE	QDYDRLPLS	1.96 ND 1.84 2.70 2.36 ND	2.21	1 of 18 (2.45)
KLSIMYQHTSRNKNNIA	ERSTREQ	QQYHHLPLS	0.40 0.38 0.57 0.24 0.82 0.65	0.51	0 of 18
MFSQGVMVGWLTRNSVA	NSETREK	QQYDRLPLS	ND ND ND ND 3.27 1.78	2.53	1 of 18 (1.10)

The last 4 entries again:

CDR-L1,CDR-L2,CDR-L3,log10 Kd (nM) by replicate,"mean, log10 nM",empty controls
KLSIFQQVESINKSNVA,EMVTRES,QQYDRLPLS,ND ND ND 2.50 ND ND,2.50,1 of 18 (2.02)
TIGQVMHYESRDKNSVA,QTSTREE,QDYDRLPLS,1.96 ND 1.84 2.70 2.36 ND,2.21,1 of 18 (2.45)
KLSIMYQHTSRNKNNIA,ERSTREQ,QQYHHLPLS,0.40 0.38 0.57 0.24 0.82 0.65,0.51,0 of 18
MFSQGVMVGWLTRNSVA,NSETREK,QQYDRLPLS,ND ND ND ND 3.27 1.78,2.53,1 of 18 (1.10)

As a blank, each scFv also met three strains without target: over all light chain designs, 4% of these pairings were detected, typically at 2.64 and seldom below 1.59. Also given: how often the same scFv was detected with the empty control strains, with their mean in brackets. A sequence measured in both rounds can read differently, since the two assays cover different ranges. The parent sequence was in this pool as ten entries: three were never detected, three once, and four in most replicates, with averages from 0.34 to 2.37. The authors averaged sequences with at least three values out of six and counted those with two or fewer as poor binders.